Data: patent publication US20120189566A1, “EXTERNAL PREPARATION CONTAINING PANTETHINE PHOSPHATE ESTER” (DAIICHI FINE CHEMICAL CO., LTD., priority 2009, published 2012)

Tested on: LabCyte MELANO-MODEL, human skin three-dimensional model containing melanocytes
Assay: Melanin production inhibition test in human skin three-dimensional model
Assay type: cell-based
Settings: Melanocyte, 336 h, read-out: concentration at which melanin production inhibition rate reaches 50%
Method: The culture medium and the applied sample solution were exchanged every 2 or 3 days. After the completion of the culture, the percentage of viable cells was measured by an MTT (methylthiazole tetrazolium) assay. Further, a melanin amount was measured.
Melanin amount: The skin cells after the MTT assay were immersed in a reagent obtained by dissolving 1% SDS, 0.05 mM EDTA, and a 10 mM tris-HCl buffer solution (pH 7.2). 3 μL of a 5 mg/mL Proteinase K was added and the solution was heated in a water bath at 45° C. overnight to dissolve the skin. A 30% hydrogen peroxide solution and a 500 mM sodium carbonate solution were added thereto, the solution was mixed well and heated in a water bath at 80° C. for 30 min, and impurities were removed by chloroform/methanol (2/1). At the same time, melanin solutions were prepared by similar operations to prepare a calibration curve, and a melanin amount in the cultured skin cells was determined.

CC(C)(CO)[C@@H](O)C(=O)NCCC(=O)NCCSSCCNC(=O)CCNC(=O)[C@H](O)C(C)(C)CO [Pantethine, pantethine]
IC50: 5.3 mM
